The target in experiment [1] is human PDE4D7 containing UCR1 activating mutation S54D (PDE4D7*) (Homo sapiens (Human), UniProt Q08499, S129D). The experiment is described as follows: biochemical.
For experiment [2], the system named is human PDE4D7 containing UCR1 activating mutation S54D (PDE4D7*). Conditions: for Selectivity PDE4 isoforms D/D*: ratio PDE4D7/PDE4D7*.

The structures appear in SMILES notation. Where two headings read alike, the source gives them in different places.

A word on the IC50: it is the concentration needed to halve the response being measured. A higher IC50 goes with a need for much substance. Regarding `CCc1nc(Nc2ccc(F)cc2)nc(-c2ccc(Cl)s2)n1` [Example 28, 4-(5-chlorothiophen-2-yl)-6-ethyl-N-(4-fluorophenyl)-1,3,5-triazin-2-amine], in experiment [1], the IC50 was less than 1000 nM. Also, the “Selectivity PDE4 isoforms B*/D*” value in experiment [2] (ratio PDE4B1*/PDE4D7*) was “− (− indicates a selectivity of ≤10×)”. Besides, the “Selectivity PDE4 isoforms D/D*” value in experiment [2] is “− (− indicates a selectivity of ≤10×)”.
For the compound `Cc1nc(Nc2ccc(CC(=O)O)cc2)nc(-c2ccco2)n1` [Example 24, 2-(4-((4-(furan-2-yl)-6-methyl-1,3,5-triazin-2-yl)amino)phenyl)acetic acid], the IC50 in experiment [1] was more than 1000 nM. For the same compound, in experiment [2] (ratio PDE4B1*/PDE4D7*), the “Selectivity PDE4 isoforms B*/D*” value is “− (− indicates a selectivity of ≤10×)”. The “Selectivity PDE4 isoforms D/D*” value in experiment [2] was “− (− indicates a selectivity of ≤10×)”.
As for `O=C(O)Cc1ccc(Nc2nc(-c3ccc(Cl)cc3)nc(C3CC3)n2)cc1` [Example 37, 2-(4-((4-(4-chlorophenyl)-6-cyclopropyl-1,3,5-triazin-2-yl)amino)phenyl)acetic acid], in experiment [1], the IC50 was more than 1000 nM. The “Selectivity PDE4 isoforms B*/D*” value in experiment [2] (ratio PDE4B1*/PDE4D7*) is “− (− indicates a selectivity of ≤10×)”. Besides, in experiment [2], the “Selectivity PDE4 isoforms D/D*” value is “− (− indicates a selectivity of ≤10×)”.
`CC(C)c1nc(Nc2ccc(F)cc2)nc(-c2ccc(Cl)s2)n1` [Example 26, 4-(5-chlorothiophen-2-yl)-N-(4-fluorophenyl)-6-isopropyl-1,3,5-triazin-2-amine] registered an IC50 in experiment [1] of less than 1000 nM. The “Selectivity PDE4 isoforms B*/D*” value in experiment [2] (ratio PDE4B1*/PDE4D7*) is “− (− indicates a selectivity of ≤10×)”.
The like results for `O=C(O)Cc1ccc(Nc2nc(-c3cccc(Cl)c3)nc(C3CC3)n2)cc1` [Example 36, 2-(4-((4-(3-chlorophenyl)-6-cyclopropyl-1,3,5-triazin-2-yl)amino)phenyl)acetic acid] were, in that order, more than 1000 nM and “− (− indicates a selectivity of ≤10×)”.
As to `CCc1c(Nc2ccc(CC(=O)O)cc2)cc(-c2cccc(Cl)c2)nc1C` [Example 7, 2-[4-[[6-(3-Chlorophenyl)-3-ethyl-2-methyl-4-pyridyl]amino]phenyl]acetic acid], in experiment [1], the IC50 is more than 1000 nM. Also, the “Selectivity PDE4 isoforms B*/D*” value in experiment [2] (ratio PDE4B1*/PDE4D7*) is “− (− indicates a selectivity of ≤10×)”. The “Selectivity PDE4 isoforms D/D*” value in experiment [2] was “− (− indicates a selectivity of ≤10×)”.
In turn, `CC(C)c1nc(Nc2ccc(CC(=O)O)cc2)nc(-c2ccc(Cl)s2)n1` [Example 25, 2-(4-((4-(5-chlorothiophen-2-yl)-6-isopropyl-1,3,5-triazin-2-yl)amino)phenyl)acetic acid] registered an IC50 in experiment [1] of more than 1000 nM. In experiment [2], the “Selectivity PDE4 isoforms D/D*” value was “− (− indicates a selectivity of ≤10×)”.
Take `NC(=O)Cc1ccc(Nc2nc(-c3cccc(Cl)c3)nc3c2CCC3)cc1` [Example 21, 2-[4-[[2-(3-chlorophenyl)-6,7-dihydro-5H-cyclopenta[d]pyrimidin-4-yl]amino]phenyl]acetamide]: in experiment [1], the IC50 is less than 1000 nM. For the same compound, the “Selectivity PDE4 isoforms D/D*” value in experiment [2] was “+ (+ indicates a selectivity of the given ratio of isoforms of >10×)”.
As to `O=C(O)Cc1ccc(Nc2nc(-c3cccc(F)c3)nc(C3CC3)n2)cc1` [Example 47, 2-(4-((4-cyclopropyl-6-(3-fluorophenyl)-1,3,5-triazin-2-yl)amino)phenyl)acetic acid], the IC50 in experiment [1] is more than 1000 nM. Besides, the “Selectivity PDE4 isoforms B*/D*” value in experiment [2] (ratio PDE4B1*/PDE4D7*) was “− (− indicates a selectivity of ≤10×)”.
Take `O=C(O)COc1ccc(Nc2cc(-c3cccc(Cl)c3)nc3c2CCC3)cc1` [Example 4, 2-[4-[[2-(3-Chlorophenyl)-6,7-dihydro-5H-cyclopenta[b]pyridin-4-yl]amino]phenoxy]acetic acid]: in experiment [1], the IC50 was more than 1000 nM. For the same compound, the “Selectivity PDE4 isoforms B*/D*” value in experiment [2] was “+ (key: + indicates a selectivity of the given ratio of isoforms of >10×; − indicates a selectivity of ≤10×)”.
Take `CCc1nc(Nc2ccc(CC(=O)O)cc2)nc(-c2cccc(F)c2)n1` [Example 48, 2-(4-((4-ethyl-6-(3-fluorophenyl)-1,3,5-triazin-2-yl)amino)phenyl)acetic acid]: in experiment [1], the IC50 is less than 1000 nM. Besides, the “Selectivity PDE4 isoforms B*/D*” value in experiment [2] (ratio PDE4B1*/PDE4D7*) is “− (− indicates a selectivity of ≤10×)”.
In turn, `O=C(O)c1ccc(Nc2cc(-c3cccc(Cl)c3)nc3c2CCC3)cc1` [Example 5, 4-[[2-(3-Chlorophenyl)-6,7-dihydro-5H-cyclopenta[b]pyridin-4-yl]amino]benzoic acid] returned an IC50 in experiment [1] of less than 1000 nM. Besides, the “Selectivity PDE4 isoforms D/D*” value in experiment [2] was “+ (+ indicates a selectivity of the given ratio of isoforms of >10×)”.
For `CCc1nc(Nc2ccc(C(=O)O)cc2)nc(-c2ccc(Cl)s2)n1` [Example 30, 4-(4-(5-chlorothiophen-2-yl)-6-ethyl-1,3,5-triazin-2-ylamino)benzoic acid], the IC50 in experiment [1] was less than 1000 nM. Moreover, the “Selectivity PDE4 isoforms B*/D*” value in experiment [2] (ratio PDE4B1*/PDE4D7*) is “− (− indicates a selectivity of ≤10×)”. For the same compound, in experiment [2], the “Selectivity PDE4 isoforms D/D*” value is “− (− indicates a selectivity of ≤10×)”.
Take `O=C(O)c1ccc(Nc2nc(-c3ccc(Cl)cc3)nc(C3CC3)n2)cc1` [Example 38, 4-((4-(4-chlorophenyl)-6-cyclopropyl-1,3,5-triazin-2-yl)amino)benzoic acid]: the IC50 in experiment [1] was less than 1000 nM. Besides, in experiment [2], the “Selectivity PDE4 isoforms D/D*” value was “− (− indicates a selectivity of ≤10×)”.
On to `CCc1nc(Oc2ccc(C(N)=O)cc2)nc(-c2cccc(Cl)c2)n1` [Example 63, 4-((4-(3-chlorophenyl)-6-ethyl-1,3,5-triazin-2-yl)oxy)benzamide], for which the IC50 in experiment [1] is more than 1000 nM. In experiment [2] (ratio PDE4B1*/PDE4D7*), the “Selectivity PDE4 isoforms B*/D*” value was “− (− indicates a selectivity of ≤10×)”.
The compound `CCc1nc(Oc2ccc(CC(N)=O)cc2)nc(-c2cccc(Cl)c2)n1` [Example 61, 2-(4-((4-(3-chlorophenyl)-6-ethyl-1,3,5-triazin-2-yl)oxy)phenyl)acetamide] displayed an IC50 in experiment [1] of less than 1000 nM. Besides, the “Selectivity PDE4 isoforms B*/D*” value in experiment [2] (ratio PDE4B1*/PDE4D7*) was “+ (+ indicates a selectivity of the given ratio of isoforms of >10×)”. The “Selectivity PDE4 isoforms D/D*” value in experiment [2] is “+ (+ indicates a selectivity of the given ratio of isoforms of >10×)”.
For `N#CCc1ccc(Nc2cc(-c3cccc(Cl)c3)nc3c2CCC3)cc1` [Example 1, 2-[4-[[2-(3-Chlorophenyl)-6,7-dihydro-5H-cyclopenta[b]pyridin-4-yl]amino]phenyl]acetonitrile], the IC50 in experiment [1] is less than 1000 nM. Further, in experiment [2] (ratio PDE4B1*/PDE4D7*), the “Selectivity PDE4 isoforms B*/D*” value is “− (− indicates a selectivity of ≤10×)”.
`NC(=O)Cc1ccc(Nc2nc(-c3ccc(Cl)s3)nc3c2CCC3)cc1` [Example 20, 2-[4-[[2-(5-chloro-2-thienyl)-6,7-dihydro-5H-cyclopenta[d]pyrimidin-4-yl]amino]phenyl]acetamide] registered an IC50 in experiment [1] of less than 1000 nM. For the same compound, the “Selectivity PDE4 isoforms D/D*” value in experiment [2] is “+ (+ indicates a selectivity of the given ratio of isoforms of >10×)”.
Take `CCc1nc(Nc2ccc(CC#N)cc2)nc(-c2cccc(Cl)c2)n1` [Example 52, 2-(4-(4-(3-chlorophenyl)-6-ethyl-1,3,5-triazin-2-ylamino)phenyl)acetonitrile]: in experiment [1], the IC50 is less than 1000 nM. Further, in experiment [2] (ratio PDE4B1*/PDE4D7*), the “Selectivity PDE4 isoforms B*/D*” value was “+ (+ indicates a selectivity of the given ratio of isoforms of >10×)”. Besides, the “Selectivity PDE4 isoforms D/D*” value in experiment [2] was “+ (+ indicates a selectivity of the given ratio of isoforms of >10×)”.
`CCc1nc(Nc2ccc(CC(=O)O)cc2)nc(-c2ccc(Cl)s2)n1` [Example 27, 2-(4-((4-(5-chlorothiophen-2-yl)-6-ethyl-1,3,5-triazin-2-yl)amino)phenyl)acetic acid] yielded an IC50 in experiment [1] of less than 1000 nM. For the same compound, in experiment [2], the “Selectivity PDE4 isoforms D/D*” value was “− (− indicates a selectivity of ≤10×)”.
In the case of `O=C(O)Cc1ccc(Oc2nc(-c3ccc(Cl)cc3)nc(C3CC3)n2)cc1` [Example 44, 2-(4-((4-(4-chlorophenyl)-6-cyclopropyl-1,3,5-triazin-2-yl)oxy)phenyl)acetic acid], the IC50 in experiment [1] was more than 1000 nM. Also, in experiment [2] (ratio PDE4B1*/PDE4D7*), the “Selectivity PDE4 isoforms B*/D*” value is “− (− indicates a selectivity of ≤10×)”.
Taken in the same sequence, the figures for `CCc1nc(Nc2ccc(-c3nn[nH]n3)cc2)nc(-c2cccc(Cl)c2)n1` [Example 54, N-(4-(2H-tetrazol-5-yl)phenyl)-4-(3-chlorophenyl)-6-ethyl-1,3,5-triazin-2-amine] were less than 1000 nM and “− (− indicates a selectivity of ≤10×)”.
In turn, `CCc1nc(Nc2ccc(C#N)cc2)nc(-c2cccc(Cl)c2)n1` [Example 51, 4-(4-(3-chlorophenyl)-6-ethyl-1,3,5-triazin-2-ylamino)benzonitrile] returned an IC50 in experiment [1] of less than 1000 nM. Further, in experiment [2] (ratio PDE4B1*/PDE4D7*), the “Selectivity PDE4 isoforms B*/D*” value is “− (− indicates a selectivity of ≤10×)”. For the same compound, in experiment [2], the “Selectivity PDE4 isoforms D/D*” value is “+ (+ indicates a selectivity of the given ratio of isoforms of >10×)”.
In experiment [1], `CC(C)c1nc(Nc2ccc(C(=O)O)cc2)nc(-c2ccc(Cl)s2)n1` [Example 29, 4-(4-(5-chlorothiophen-2-yl)-6-isopropyl-1,3,5-triazin-2-ylamino)benzoic acid] came in with an IC50 of less than 1000 nM. For the same compound, in experiment [2] (ratio PDE4B1*/PDE4D7*), the “Selectivity PDE4 isoforms B*/D*” value was “− (− indicates a selectivity of ≤10×)”. For the same compound, the “Selectivity PDE4 isoforms D/D*” value in experiment [2] is “− (− indicates a selectivity of ≤10×)”.
As for `O=C(O)Cc1ccc(Oc2nc(-c3cccc(Cl)c3)nc(C3CC3)n2)cc1` [Example 43, 2-(4-((4-(3-chlorophenyl)-6-cyclopropyl-1,3,5-triazin-2-yl)oxy)phenyl)acetic acid], the IC50 in experiment [1] is more than 1000 nM. The “Selectivity PDE4 isoforms B*/D*” value in experiment [2] (ratio PDE4B1*/PDE4D7*) is “− (− indicates a selectivity of ≤10×)”. Further, the “Selectivity PDE4 isoforms D/D*” value in experiment [2] was “− (− indicates a selectivity of ≤10×)”.
Take `O=C(Cc1ccc(Nc2cc(C3CC3)nc(-c3cccc(Cl)c3)n2)nc1)NCCO` [Example 215, 2-(6-((2-(3-Chlorophenyl)-6-cyclopropylpyrimidin-4-yl)amino)pyridin-3-yl)-N-(2-hydroxyethyl)acetamide]: the IC50 in experiment [1] is less than 1000 nM.
With `CCc1c(C)nc(-c2ccc(Cl)s2)nc1Nc1ccc(CS(C)(=O)=O)cc1` [Example 317, 2-(5-chloro-2-thienyl)-5-ethyl-6-methyl-N-[4-(methylsulfonylmethyl)phenyl]pyrimidin-4-amine], the IC50 in experiment [1] is less than 1000 nM.
In experiment [1], `FC(F)(F)c1cc(Nc2ccc(Cc3nn[nH]n3)cc2)nc(-c2ccc(Cl)s2)n1` [Example 79, 2-(5-Chloro-2-thienyl)-N-[4-(2H-tetrazol-5-ylmethyl)phenyl]-6-(trifluoromethyl)pyrimidin-4-amine] yielded an IC50 of less than 1000 nM.

Values taken from patent publication US11401286B2 (Tetra Discovery Partners, LLC, priority 2012, dated 2022).
